This experiment deals with T1, human FcγRIa (human, UniProt P12314).
T1 chain: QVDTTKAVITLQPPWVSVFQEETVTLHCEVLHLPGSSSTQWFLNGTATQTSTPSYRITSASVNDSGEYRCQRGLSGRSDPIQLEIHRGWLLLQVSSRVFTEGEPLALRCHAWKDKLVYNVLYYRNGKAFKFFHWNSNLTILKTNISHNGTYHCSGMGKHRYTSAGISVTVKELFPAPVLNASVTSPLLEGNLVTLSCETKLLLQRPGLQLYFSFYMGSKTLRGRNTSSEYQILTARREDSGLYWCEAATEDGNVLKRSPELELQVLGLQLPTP
Kind of experiment: SPR.

B1: BP542 (antibody)
chain 1: QVQLQESGPGLVKPSETLSLTCAVSGHSISHDHAWSWVRQPPGEGLEWIGFISYSGITNYNPSLQGRVTISRDNSKNTLYLQMNSLRAEDTAVYYCARSLARTTAMDYWGEGTLVTVSSASTKGPSVFPLAPSSKSTSGGTAALGCLVKDYFPEPVTVSWNSGALTSGVHTFPAVLQSSGLYSLSSVVTVPSSSLGTQTYICNVNHKPSNTKVDKKVEPKSCDKTHTCPPCPAPDLLGDDSVFLFPPKPKDTLMISRTPEVTCVVVDVSDEDGEVKFNWYVDGVEVHNAKTKPREEQFNSTYRVVSVLTVLHQDWLNGKEYKCKVSNKALPRPIEKTISKAKGQPREPQVYTLPPSRDELTKNQVSLTCLVKGFYPSDIAVEWESNGQPENNYKTTPPVLDSDGSFFLYSKLTVDKSRWQQGNVFSCSVMHEALHNHYTQESLSLSP
chain 2: not shown
Regarding B1, the Kd was 13 nM.

B2: BP545 (antibody)
chain 1: QVQLQESGPGLVKPSETLSLTCAVSGHSISHDHAWSWVRQPPGEGLEWIGFISYSGITNYNPSLQGRVTISRDNSKNTLYLQMNSLRAEDTAVYYCARSLARTTAMDYWGEGTLVTVSSASTKGPSVFPLAPSSKSTSGGTAALGCLVKDYFPEPVTVSWNSGALTSGVHTFPAVLQSSGLYSLSSVVTVPSSSLGTQTYICNVNHKPSNTKVDKKVEPKSCDKTHTCPPCPAPDLLGDDSVFLFPPKPKDTLMISRTPEVTCVVVDVSDEDGEVKFNWYVDGVEVHNAKTKPREEQDNSTYRVVSVLTVLHQDWLNGKEYKCKVSNKALPRPIEKTISKAKGQPREPQVYTLPPSREELTKNQVSLTCLVKGFYPSDIAVEWESNGQPENNYKTTPPVLDSDGSFFLYSKLTVDKSRWQQGNVFSCSVMHEALHNHYTQESLSLSP
chain 2: not shown
As to B2, the affinity, expressed as Kd, was 9.9 nM.

(Values after patent US20190112393 (published 2019).)
